System: TZM-bl cells
Experiment: Cytotoxicity, XTT test
Settings: read-out: Cytotoxicity (TZM-bl cells) CC50

Substance: maraviroc [reference compound]
- CC50: > 20 µM

— patent US11814366B2, “Antiviral compounds and use thereof” (UNIVERSITA DEGLI STUDI DI SIENA, priority 2018, dated 2023)
